This passage reports IC50 results from patent EP2424865B1 (Boehringer Ingelheim International GmbH, priority 2009, dated 2010).

Amino acid sequences for entries named in this document (tags omitted).
UniProt P33261, whole entry: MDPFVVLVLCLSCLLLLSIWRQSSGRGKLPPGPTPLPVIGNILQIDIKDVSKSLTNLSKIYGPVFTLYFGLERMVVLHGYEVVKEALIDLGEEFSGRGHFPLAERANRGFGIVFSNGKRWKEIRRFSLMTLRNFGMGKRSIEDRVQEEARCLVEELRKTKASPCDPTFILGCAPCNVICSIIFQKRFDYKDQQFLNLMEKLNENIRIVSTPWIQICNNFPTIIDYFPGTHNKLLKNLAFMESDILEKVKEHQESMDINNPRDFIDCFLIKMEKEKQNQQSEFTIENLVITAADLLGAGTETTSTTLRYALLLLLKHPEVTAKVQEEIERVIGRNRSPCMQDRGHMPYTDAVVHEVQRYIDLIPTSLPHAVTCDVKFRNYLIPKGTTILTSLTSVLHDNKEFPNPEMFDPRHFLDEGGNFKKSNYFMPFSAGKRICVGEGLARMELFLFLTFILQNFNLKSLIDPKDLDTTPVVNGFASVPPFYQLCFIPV
UniProt P11712, whole entry: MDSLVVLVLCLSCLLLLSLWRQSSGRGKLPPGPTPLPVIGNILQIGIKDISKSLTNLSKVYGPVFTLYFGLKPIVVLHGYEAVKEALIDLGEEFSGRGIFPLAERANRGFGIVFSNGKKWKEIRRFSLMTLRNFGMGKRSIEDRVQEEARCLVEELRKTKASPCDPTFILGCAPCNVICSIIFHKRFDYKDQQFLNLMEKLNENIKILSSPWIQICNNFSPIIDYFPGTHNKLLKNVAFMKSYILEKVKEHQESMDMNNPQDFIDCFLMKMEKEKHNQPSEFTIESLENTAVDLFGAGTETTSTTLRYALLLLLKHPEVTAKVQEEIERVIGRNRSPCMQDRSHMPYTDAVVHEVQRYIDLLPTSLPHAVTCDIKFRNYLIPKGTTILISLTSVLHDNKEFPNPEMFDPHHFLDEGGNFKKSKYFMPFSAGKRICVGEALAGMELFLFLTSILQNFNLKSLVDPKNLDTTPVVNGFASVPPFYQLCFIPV

Assay in all cases: biochemical
Assay [1] has as its target human recombinant cytochrome P450 2C19 (Homo sapiens, UniProt P33261).
The target of assay [2] is human recombinant cytochrome P450 2C9 (Homo sapiens, UniProt P11712).
Assay [3] has as its target CYP2C9 (Homo sapiens, UniProt P11712).

Take `C[C@@H](c1ccc(-c2ccc(=O)n(C(F)F)c2)cc1)N1CC[C@](CC(C)(C)O)(c2ccccc2)OC1=O` [Example 4, (S)-3-((S)-1-(4-(1-(difluoromethyl)-6-oxo-1,6-dihydropyridin-3-yl)phenyl)ethyl)-6-(2-hydroxy-2-methylpropyl)-6-phenyl-1,3-oxazinan-2-one]: the IC50 in assay [1] worked out at 22 µM.
On to `C[C@@H](c1ccc(-c2ccn(C(F)F)c(=O)c2)cc1)N1CC[C@](CC(C)(C)O)(c2ccccc2)OC1=O` [Example 5], for which the values for the IC50 in assay [1] and in assay [2] were 22 µM and 37 µM, respectively.
As to `CC(C)n1cc(-c2ccc([C@H](C)N3CC[C@](CC(C)(C)O)(c4ccccc4)OC3=O)cc2)ccc1=O` [Example 59, (S)-6-(2-hydroxy-2-methylpropyl)-3-((S)-1-(4-(1-isopropyl-6-oxo-1,6-dihydropyridin-3-yl)phenyl)ethyl)-6-phenyl-1,3-oxazinan-2-one], in assay [3], the IC50 came out at 17.7 µM.

One may read the IC50 as the concentration needed to halve the response being measured.
